The values below come from publication PMC6714936 (Clinical and Applied Thrombosis/Hemostasis, 2019).

Protein sequences, listed by entry. Tags and fused reporters are not part of them. Residues count along the entry.
UniProt P00743, 41-180: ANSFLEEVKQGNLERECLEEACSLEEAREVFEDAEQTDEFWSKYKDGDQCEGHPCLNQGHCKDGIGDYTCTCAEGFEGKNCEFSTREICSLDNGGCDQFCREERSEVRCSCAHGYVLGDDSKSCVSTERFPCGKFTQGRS
UniProt P00743, 234-492: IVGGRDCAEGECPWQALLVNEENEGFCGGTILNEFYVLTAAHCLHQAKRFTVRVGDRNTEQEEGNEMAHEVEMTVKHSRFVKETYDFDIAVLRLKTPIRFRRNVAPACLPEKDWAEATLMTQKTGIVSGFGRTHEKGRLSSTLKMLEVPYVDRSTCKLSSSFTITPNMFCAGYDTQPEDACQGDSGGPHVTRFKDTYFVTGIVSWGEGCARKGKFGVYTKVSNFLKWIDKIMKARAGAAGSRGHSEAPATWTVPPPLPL

Each structure is given as a SMILES string.

This assay has as its target factor Xa (Bos taurus, UniProt P00743). Description: kinetic amidolytic. In kind it is biochemical.

The compound `CN1CCc2nc(C(=O)N[C@@H]3C[C@@H](C(=O)N(C)C)CC[C@@H]3NC(=O)C(=O)Nc3ccc(Cl)cn3)sc2C1` [Edoxaban] yielded an IC50 of 0.78 µM. This lies in the sub-micromolar range.

The IC50 is the concentration that inhibits the measured activity by half.
